The values that follow are results of earlier work, collected in patent US9492404B2, “Compositions and methods for treatment of taupathy” (Revalesio Corporation, priority 2010, dated 2016).

This series relates to MS. Conditions: in vivo.

B1: interferon-β: naturally occurring protein produced by fibroblasts, drug for MS (protein, UniProt P01574 22-187, looked up)
Interferon beta: MSYNLLGFLQRSSNFQCQKLLWQLNGRLEYCLKDRMNFDIPEEIKQLQQFQKEDAALTIYEMLQNIFAIFRQDSSSTGWNETIVENLLANVYHQINHLKTVLEEKLEKEDFTRGKLMSSLHLKRYYGRILHYLKAKEYSHCAWTIVRVEILRNFYFINRLTGYLRN
As to B1, the “effectiveness in reducing the rate of MS episodes” value is 18-38%.
